# AlphaSeq binding of Ab-14 heavy chain variants to a spike HR2 peptide

Values reported by Engelhart et al. 2022, doi:10.1038/s41597-022-01779-4 (FLAb copy).

Target: peptide PDVDLGDISGINAS, taken from heptad repeat 2 (HR2) of SARS-CoV-2 spike.

Each scFv is VH, a 15-residue (Gly4Ser)3 linker, VL, as in the parent Ab-14, and differs from it in the CDRs of the heavy chain only.
VH: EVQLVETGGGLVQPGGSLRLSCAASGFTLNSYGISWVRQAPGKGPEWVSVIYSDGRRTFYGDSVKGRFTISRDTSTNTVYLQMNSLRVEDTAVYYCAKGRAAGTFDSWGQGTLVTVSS
VL: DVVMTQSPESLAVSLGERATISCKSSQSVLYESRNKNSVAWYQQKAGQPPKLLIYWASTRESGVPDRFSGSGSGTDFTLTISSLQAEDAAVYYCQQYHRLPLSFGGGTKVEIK

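Phage display of a naive human antibody library on the peptide gave the parent. The library (AAYL49) carries one to three amino acid substitutions per variant, with no insertions or deletions. AlphaSeq pools MATa yeast showing the antibodies with MATalpha yeast showing the peptide. The frequency of each diploid, read from paired DNA barcodes, reflects how well the two displayed proteins bind. The ratio of observed to expected reads was calibrated, replicate by replicate, on BCL2-family standards whose Kd was known from biolayer interferometry. Each pool was mated in three replicate cultures.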

Each variant is given by its three heavy chain CDRs, as the data file delimits them; those of the parent are GFTLNSYGIS, VIYSDGRRTFYGDSVK, GRAAGTFDS.
Affinities are written as log10 Kd with Kd in nM; a lower number is a better binder.
A mean of the replicates is given; it leaves out those without a signal.
"ND" means that the variant was in the library but no mating with the target was seen in that replicate; the authors take this as a sign of poor binding, and no number exists.
As a blank, each scFv also met three strains without target: over library AAYL49, 15% of these pairings were detected, typically at 4.06 and seldom below 2.83. Also given: how often the same scFv was detected with the empty control strains, with their mean in brackets.

| CDR-H1 | CDR-H2 | CDR-H3 | log10 Kd, replicates | log10 Kd (nM), mean | control signals |
|---|---|---|---|---|---|
| GFCLNSYGIS | VIYSDGRRQFYGDSVK | GRAFGTFDS | 1.67 / 2.34 / 2.21 | 2.08 | 3 of 9 (3.54) |
| GFTLNSYGIS | VIYSDGRRTFYGASVW | GRAAGTFDY | 2.36 / 1.84 / 2.23 | 2.14 | 0 of 9 |
| GFTLNSFGIS | VIYSDGRRTFYGDSVH | GRAACTFDS | ND / ND / ND | ND | 0 of 9 |
| GFTLNSYGIS | VIYSDCRRTFYGDSVK | GRAAGTFDS | ND / ND / ND | ND | 0 of 9 |
| GFTLNSYGIS | VIYSDGRRTFYGDSVK | GRGAGTFDF | ND / 3.21 / ND | 3.21 | 3 of 9 (4.19) |
| GFTLNSYGIS | VIYSDCRRTFYGDSVK | NRDAGTFDS | ND / ND / ND | ND | 0 of 9 |
| GFTLNSYGIQ | VIYSDGRRTRYGDSFK | GRAAGTFDS | ND / 2.93 / ND | 2.93 | 4 of 9 (4.36) |
| GFTLNSYLIS | VIYSDMRCTFYGDSVK | GRAAGTFDS | ND / ND / ND | ND | 0 of 9 |
| GFTLNWYKIS | VIYSDGRRTFYGDSVK | GCAAGTFDS | ND / ND / ND | ND | 1 of 9 (3.45) |
| GFYLNSYGQS | VIYSDGIRTFYGDSVK | GRAAGTFDS | ND / ND / ND | ND | 0 of 9 |
| GFTLNPYGIS | VIQSDGRRTFYGDSVK | GRALGTFDS | ND / ND / ND | ND | 1 of 9 (3.70) |
| GYTLNSYGIS | VIYSVGRRTFYGDLVK | GRAAGTFDS | ND / ND / 4.13 | 4.13 | 4 of 9 (3.99) |
| GFTLNQYGIS | VIYSDGRRTFYGDSVK | GRAADTFDS | -0.10 / 0.30 / 0.14 | 0.11 | 1 of 9 (4.08) |
| GFTANSYGIS | VIYSIGRRTFYGDSVK | HRAAGTFDS | 3.46 / ND / ND | 3.46 | 2 of 9 (3.74) |
| PFTLNSYQIS | VIYSDGARTFYGDSVK | GRAAGTFDS | 4.47 / ND / ND | 4.47 | 0 of 9 |
| GFTSNSYGIS | MIYSDGRRTFYGDYVK | GRAAGTFDS | ND / ND / ND | ND | 1 of 9 (4.76) |
| GFTLNSYGIS | VIYSDGRRTLYGDSVK | GRWYGTFDS | ND / ND / ND | ND | 0 of 9 |
| GGTLNSWGIS | VIYSDGQRTFYGDSVK | GRAAGTFDS | 3.52 / ND / ND | 3.52 | 0 of 9 |
| GFTLNSYWIS | VIYSDGRETFYGDSVK | GRAAGTFDS | 3.66 / ND / ND | 3.66 | 3 of 9 (4.70) |
| GFELNSYGIS | VIYSDGRRTFYCDSVI | GRAAGTFDS | 1.00 / 1.17 / 0.89 | 1.02 | 0 of 9 |
| GFTLNSYGIS | VIYTDGRRTFYGDSVK | GHAAGQFDS | ND / ND / ND | ND | 0 of 9 |
| GFTINSYGIS | VIYSDGRRCFYGDSVK | GRATGTFDS | ND / ND / ND | ND | 0 of 9 |
| GFTLNSYGTS | VIYSDMRRTFYGDSVK | GRAAGTFDS | 2.78 / ND / 5.45 | 4.12 | 2 of 9 (4.37) |
| GFTLNSYGIS | VIYSDGRRTAYLDSVK | GRAAGTPDS | ND / ND / ND | ND | 0 of 9 |
| GNTLNSYGIS | VIYSDGRRTFYGDSVG | GRAAGWFDS | 3.41 / ND / ND | 3.41 | 1 of 9 (3.81) |
| GFTLNSYSIS | VIYWDGRRTFYGDSVK | GRAALTFDS | 4.65 / ND / ND | 4.65 | 1 of 9 (4.22) |
| GFTLNSYGIS | VIYSDGRRTFYGHSVK | GRTAGTFDN | ND / ND / ND | ND | 0 of 9 |
| GFVLNSSHIS | VIYSDGRRTFYGDSVK | GRAAGTFDS | ND / ND / ND | ND | 1 of 9 (3.81) |
| GFTLNSYGIW | VIYSDGRRTFYGDSVL | GRAAGTFIS | ND / ND / ND | ND | 0 of 9 |
| GFTLNSYGIS | VIYWDGRRTYYGDSVK | GWAAGTFDS | ND / 3.28 / 2.91 | 3.10 | 0 of 9 |

The first 4 variants above that were never detected:

| CDR-H1 | CDR-H2 | CDR-H3 | log10 Kd, replicates | log10 Kd (nM), mean | control signals |
|---|---|---|---|---|---|
| GFTLNSFGIS | VIYSDGRRTFYGDSVH | GRAACTFDS | ND / ND / ND | ND | 0 of 9 |
| GFTLNSYGIS | VIYSDCRRTFYGDSVK | GRAAGTFDS | ND / ND / ND | ND | 0 of 9 |
| GFTLNSYGIS | VIYSDCRRTFYGDSVK | NRDAGTFDS | ND / ND / ND | ND | 0 of 9 |
| GFTLNSYLIS | VIYSDMRCTFYGDSVK | GRAAGTFDS | ND / ND / ND | ND | 0 of 9 |

Parent in this assay: reference entry 0.65, copy in this library 4.11 (one replicate of three).